By UniProt entry, the sequences of proteins in these tests, tags left out. Residues count along the entry.
UniProt Q9F663, 25-293, looked up, species assumed: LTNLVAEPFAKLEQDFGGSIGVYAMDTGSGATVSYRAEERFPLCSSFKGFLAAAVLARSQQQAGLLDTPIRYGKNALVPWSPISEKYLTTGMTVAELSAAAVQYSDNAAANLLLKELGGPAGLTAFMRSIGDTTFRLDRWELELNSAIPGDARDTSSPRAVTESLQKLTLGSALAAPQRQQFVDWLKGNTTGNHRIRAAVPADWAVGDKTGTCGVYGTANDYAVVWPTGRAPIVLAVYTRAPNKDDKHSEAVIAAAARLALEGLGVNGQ

According to patent US11040987B2 (TenNor Therapeutics Limited, priority 2019, dated 2021):

Biological target: T1, KPC-2 (Klebsiella pneumoniae, UniProt Q9F663)
T1 construct: made in house
Assay: β-lactamase inhibition, spectrophotometric assay of nitrocefin hydrolysis
Format: biochemical
From the text: Hydrolytic inactivation of the β-lactam antibiotics by β-lactamases is the most widespread drug resistant mechanism and the most challenge clinically among Gram-negative bacterial pathogens. Based on the amino acid sequences, the β-lactamases are grouped into four classes (Ambler classification), of which A, C and D are serine hydrolases and B encompasses metallo-β-lactamases. The IC50 of selected derivatives disclosed herein (identified with reference to example number) plus six reference β-lactam or β-lactamase inhibitors were determined against 7 representative β-lactamases of various classes in a standard spectrophotometric assay of nitrocefin hydrolysis. The assay is performed in 384-well plate. The seven recombinant β-lactamases AmpC_AB (from A. baumannii), AmpC_PA (from P. aeruginosa), KPC-2, NDM-1, IMP-1, VIM-1 and OXA 24/40) are expressed and purified. The reaction buffer for class A, C and D enzymes is 100 mM Na2HPO4—KH2PO4 (pH 7.1) plus 0.005% Tween-20, and for class B enzymes 10 μM ZnSO4 is added. […] The 50 μL of reaction solution composed of 2 pM of β-lactamase, 200 μM of nitrocefin and series of 3-fold dilutions of test or control compounds are added by Cybio SELMA system into 384-plate and incubated in dark at 25° C. for 2 hours. The OD490 is read in MC SpectraMax Plus384 plate reader.

O=C(NC1CCNCC1)[C@@H]1CC[C@@H]2CN1C(=O)N2OS(=O)(=O)O [Relebactam, reference compound]
IC50: 458 nM
